Laboratory results published in paper PMC6858373 (Scientific Reports, 2019).

Chains of the proteins cited; added tags and fusions are not shown. Residues count along the entry.
UniProt Q92915, 1-252 isoform Q92915-2: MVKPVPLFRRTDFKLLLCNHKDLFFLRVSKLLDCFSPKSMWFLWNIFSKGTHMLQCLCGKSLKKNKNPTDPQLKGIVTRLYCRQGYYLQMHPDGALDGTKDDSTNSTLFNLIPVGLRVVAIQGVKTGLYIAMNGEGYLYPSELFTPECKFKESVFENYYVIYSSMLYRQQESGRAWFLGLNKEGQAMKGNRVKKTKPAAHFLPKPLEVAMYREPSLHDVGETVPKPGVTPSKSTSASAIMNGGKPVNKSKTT
UniProt Q9UQD0, 1763-1976 limits assumed: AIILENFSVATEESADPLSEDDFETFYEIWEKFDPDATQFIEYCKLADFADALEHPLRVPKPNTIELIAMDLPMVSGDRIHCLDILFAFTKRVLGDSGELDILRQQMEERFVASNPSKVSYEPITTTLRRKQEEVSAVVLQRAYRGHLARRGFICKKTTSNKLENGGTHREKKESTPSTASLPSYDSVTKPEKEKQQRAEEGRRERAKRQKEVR

Biological target: FGF14:Nav1.6 C-tail complex (Homo sapiens, UniProt Q92915+Q9UQD0)
Test: Split-luciferase complementation assay (LCA) in Clone V double stable HEK293 cells
Settings: CC_NCI screening, biological replicate Set 1

With `CS(=O)(=O)CCNCc1ccc(-c2ccc3ncnc(Nc4ccc(OCc5cccc(F)c5)c(Cl)c4)c3c2)o1` [LAPATINIB] as the compound, how does the “Split Luciferase Assay % Lum Set 1” value (LCA luminescence, normalized to on-plate 0.3% DMSO controls (n=16 per plate)) read?
The value was 118.82%.

And the “Split Luciferase Assay Z-score Set 1” value (LCA, normalized to on-plate 0.3% DMSO controls)?
Its value is 1.52.
